Data as given in ChEMBL document CHEMBL5390232, “Discovery of (E)-2-(hydroxyimino)-N-(2 ((4methylpentyl)amino)ethyl)acetamide (KR-27425) as a non-pyridinium oxime reactivator of paraoxon-inhibited acetylcholinesterase” (2023).

Chains of the proteins cited; added tags and fusions are not shown. Lines headed by an entry give the natural chain unless they say otherwise; changes in a name come on top.
UniProt O42275: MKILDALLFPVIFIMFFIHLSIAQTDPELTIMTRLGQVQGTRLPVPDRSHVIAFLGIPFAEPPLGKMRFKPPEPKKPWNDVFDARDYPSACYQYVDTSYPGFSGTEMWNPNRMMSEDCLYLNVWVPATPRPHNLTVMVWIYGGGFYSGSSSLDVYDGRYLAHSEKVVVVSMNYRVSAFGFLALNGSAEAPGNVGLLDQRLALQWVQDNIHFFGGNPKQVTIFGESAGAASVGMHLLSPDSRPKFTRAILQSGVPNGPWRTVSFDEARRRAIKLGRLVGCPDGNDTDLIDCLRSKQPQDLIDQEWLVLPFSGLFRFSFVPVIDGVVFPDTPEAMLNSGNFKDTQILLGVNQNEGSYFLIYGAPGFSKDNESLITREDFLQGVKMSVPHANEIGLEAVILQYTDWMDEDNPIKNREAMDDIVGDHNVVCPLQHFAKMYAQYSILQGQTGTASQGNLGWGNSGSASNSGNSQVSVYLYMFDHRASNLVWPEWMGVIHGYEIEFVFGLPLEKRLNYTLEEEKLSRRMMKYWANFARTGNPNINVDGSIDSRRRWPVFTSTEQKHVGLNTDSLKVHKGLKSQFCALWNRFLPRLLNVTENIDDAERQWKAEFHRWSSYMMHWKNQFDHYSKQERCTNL
UniProt P22303: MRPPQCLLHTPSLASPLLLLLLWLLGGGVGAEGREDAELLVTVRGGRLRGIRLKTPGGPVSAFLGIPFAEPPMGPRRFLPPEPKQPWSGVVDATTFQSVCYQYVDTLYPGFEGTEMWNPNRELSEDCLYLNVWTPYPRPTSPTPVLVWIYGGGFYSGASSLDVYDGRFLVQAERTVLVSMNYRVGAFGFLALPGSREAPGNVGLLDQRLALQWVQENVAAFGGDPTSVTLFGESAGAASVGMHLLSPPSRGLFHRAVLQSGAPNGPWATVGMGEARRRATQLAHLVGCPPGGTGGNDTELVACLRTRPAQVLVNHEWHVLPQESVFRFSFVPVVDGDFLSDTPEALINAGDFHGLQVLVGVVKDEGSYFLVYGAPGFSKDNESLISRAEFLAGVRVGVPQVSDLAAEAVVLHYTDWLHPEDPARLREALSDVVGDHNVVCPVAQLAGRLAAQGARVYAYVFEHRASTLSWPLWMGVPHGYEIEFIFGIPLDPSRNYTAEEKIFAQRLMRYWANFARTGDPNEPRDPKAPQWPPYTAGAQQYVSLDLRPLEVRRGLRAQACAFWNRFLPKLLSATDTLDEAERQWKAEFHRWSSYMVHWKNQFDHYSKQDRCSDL

Key:
Parameters in all cases: scale not given: the % may be the effect or the level left
[1] = target: Acetylcholinesterase (Electrophorus electricus) (UniProt O42275); experiment: Reactivation of paraoxon-inhibited electric eel AChE at 100 uM incubated for 1 hr relative to control
[2] = target: Acetylcholinesterase (Electrophorus electricus) (UniProt O42275); experiment: Reactivation of paraoxon-inhibited electric eel AChE at 1000 uM incubated for 1 hr relative to control
[3] = target: Acetylcholinesterase (Electrophorus electricus) (UniProt O42275); experiment: Reactivation of paraoxon-inhibited electric eel AChE at 10 uM incubated for 1 hr relative to control
[4] = target: Acetylcholinesterase (Homo sapiens) (UniProt P22303); experiment: Reactivation of paraoxon-inhibited human AChE at 100 uM incubated for 1 hr by spectrophotometry method relative to control
[5] = target: Acetylcholinesterase (Homo sapiens) (UniProt P22303); experiment: Reactivation of paraoxon-inhibited human AChE at 1000 uM incubated for 1 hr by spectrophotometry method relative to control
[6] = target: Acetylcholinesterase (Homo sapiens) (UniProt P22303); experiment: Reactivation of paraoxon-inhibited human AChE at 10 uM incubated for 1 hr by spectrophotometry method relative to control

Row | SMILES | Activity [1] [%] | Activity [2] [%] | Activity [3] [%] | Activity [4] [%] | Activity ([1]; filed as activator) [%] | Activity ([2]; filed as activator) [%] | Activity [5] [%] | Activity [6] [%]
1 | O=C(/C=N/O)NCCCN1CCCCCC1 | 18 | 32 | 1 | – | – | – | – | –
2 | O=C(/C=N/O)Nc1cc(C(F)(F)F)cc(C(F)(F)F)c1 | 2 | 7 | 1 | – | – | – | – | –
3 | O=C(NCCCNC1CCCCC1)c1ccc(/C=N/O)nc1 | 5 | 8 | 0 | – | – | – | – | –
4 | O/N=C/c1ccc(OCc2ccc(Cl)cc2Cl)cc1 | 3 | 7 | 1 | – | – | – | – | –
5 | C/C(=N\O)c1ccc(S(=O)(=O)C2CCCC2)cc1 | 2 | 10 | 0 | – | – | – | – | –
6 | CC(C)CCCNCCNC(=O)/C=N/O | – | – | 6 | 7 | 60 | 67 | 10 | 2
7 | CN(C)CCNC(=O)/C=N/O | 12 | 25 | 1 | – | – | – | – | –
8 | COc1ccc(/C(C)=N/O)cc1CN1CCOCC1 | 1 | 5 | 0 | – | – | – | – | –
9 | O=C(/C=N/O)Nc1ccc(Cl)cc1C(F)(F)F | 3 | 10 | 1 | – | – | – | – | –
10 | CCN(CCCNC(=O)/C=N/O)Cc1ccccc1 | 10 | 18 | 0 | – | – | – | – | –
11 | O=C(COc1ccc(/C=N/O)cc1)N1CCOCC1 | 1 | 9 | 0 | – | – | – | – | –
12 | Cc1ccc(NC(=O)/C=N/O)c(C)c1 | 1 | 8 | 0 | – | – | – | – | –
13 | C/C(=N\O)c1cccc(OCC(=O)N2CCOCC2)c1 | 3 | 7 | 0 | – | – | – | – | –
14 | O=C(/C=N/O)NC1CCCCC1 | 3 | 11 | 1 | – | – | – | – | –
15 | O=C(/C=N/O)Nc1ccccc1 | 3 | 11 | 1 | – | – | – | – | –
